Each structure is given as a SMILES string.

Sequences of proteins named here, by UniProt entry; tags and fusion partners are left off.
UniProt P34969, whole entry: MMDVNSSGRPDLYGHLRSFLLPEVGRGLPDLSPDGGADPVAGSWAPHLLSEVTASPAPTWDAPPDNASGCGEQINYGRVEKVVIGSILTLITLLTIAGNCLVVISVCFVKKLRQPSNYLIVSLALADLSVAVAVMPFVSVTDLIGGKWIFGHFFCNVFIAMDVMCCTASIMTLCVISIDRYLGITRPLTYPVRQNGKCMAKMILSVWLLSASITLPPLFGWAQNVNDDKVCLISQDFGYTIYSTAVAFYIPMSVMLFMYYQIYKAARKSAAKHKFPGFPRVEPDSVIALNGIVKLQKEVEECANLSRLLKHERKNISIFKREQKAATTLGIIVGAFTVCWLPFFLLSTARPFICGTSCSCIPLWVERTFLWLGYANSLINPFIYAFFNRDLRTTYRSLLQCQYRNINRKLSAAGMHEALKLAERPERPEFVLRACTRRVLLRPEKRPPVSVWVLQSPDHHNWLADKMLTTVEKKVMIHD

This note sets out measurements from ChEMBL document CHEMBL4616598 (Bioorg Med Chem, 2020).

The target in the assay is 5-hydroxytryptamine receptor 7 (Homo sapiens, UniProt P34969). In words: Displacement of [3H]-5-carboxamidotryptamine from human 5-HT7A receptor expressed in HEK293 cell membranes incubated for 90 mins by scintillation counting method.

On to `CCCN(CCC)[C@@H]1CCc2cccc(O)c2C1`, for which the affinity corresponds to a Ki of 48 nM.
As to `O=C1CC2(CCCC2)CC(=O)N1CCCCN1CCN(c2ncccn2)CC1` [BUSPIRONE], the Ki stood at 840 nM.
As for `CCCN(CCC)[C@H]1CCc2cccc(O)c2C1`, the inhibition constant (Ki) stood at 1000 nM.

For orientation: Ki means the dissociation constant of the complex between target and ligand, obtained from inhibition or displacement.
